# Conditions: mouse, in vivo
smiles,measurement,value
"CNC(=O)c1cc(Oc2ccc(NC(=O)Nc3ccc(Cl)c(C(F)(F)F)c3)cc2)ccn1 [Sorafenib, sorafenib]","Body weight gain, Day 0~Day 28",4.23 ± 1.51
